From PubChem BioAssay
MLLE-PAM2 inh: inhibitors of microRNA-mediated deadenylation, human PABP1 MLLE binding; P11940; GST-MLLE / FITC-PAM2 fluorescence polarization; inhibition, % at 20 µM; hit rate 0.36% among 360,000; AID 588489; in the data active = inhibition above about 35%, passing the limit was not always enough;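 note: plate controls were DMSO wells with GST-MLLE for no effect and wells lacking GST-MLLE protein for full effect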
Pemphigus Ab inh: inhibitors of pemphigus antibody binding to human desmoglein-3; P32926; DSG3-coupled beads, scFv-anti-DSG3-GFP binding, flow cytometry; hits give low values; binding (percent of control), % at 10 µM; hit rate 0.48% among 310,000;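 active = binding more than 3 SD below its plate's average and above zero; inconclusive = below that plate limit but binding exactly zero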;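 note: hits lower antibody fragment binding to DSG3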
Yeast UUG start: modulators of start codon recognition fidelity in yeast; AID 602363; hit rate 0.13% among 350,000; activity score, % at 18.7 µM; S. cerevisiae UUG-firefly luciferase reporter, luminescence/redox ratio;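 active = replicate mean at a twofold rise or more, about +100% in these data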;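 note: firefly luciferase made from a UUG start codon reports start codon fidelity; reporter light over untreated wells divided by growth signal over untreated wells; some hits fall short of that in this replicate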
eIF4H inh: inhibitors of RNA binding by human eIF4H. Q15056. hit rate 0.94% among 290,000. inhibition, % at 35 µM. eIF4H fluorescence polarization binding assay;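 note: calls also rest on retests at 20 µM and on dose response follow-up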
PABP polyA inh: PABP-poly(A) binding inhibition; P11940; PABP-poly(A) RNA binding, fluorescence polarization; calls only at 35 µM; hit rate 1% among 290,000; AID 2014;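 note: calls also rest on retests at 20 µM and on dose response follow-up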
Active calls of the source: *; i = inactive; u = inconclusive; x = no result; + = active, no number; ! = not confirmed by another sample. A selection: hits, their analogues and other compounds. The true share with any hit is near 1.5%. Unless noted, the rule behind the calls is not given here.

The first 3 records (preview)
MLLE-PAM2 inh | Pemphigus Ab inh | Yeast UUG start | eIF4H inh | PABP polyA inh | Molecule
-109 | 94 | -8 | 70* | i | N=C1/C(=C\c2ccc(-c3ccc(C(=O)O)cc3)o2)C(=O)N=C2SC=C(c3ccccc3)N12
-11 | 94 | -19 | 83* | + | S=c1[nH]nc(-c2ccc(Cl)cc2)n1/N=C/C=C/c1ccco1
-15 | 91 | x | 96* | i | S=c1[nH]nc(-c2cccnc2)n1/N=C/C=C/c1ccco1

Results, previewed entries included:
MLLE-PAM2 inh | Pemphigus Ab inh | Yeast UUG start | eIF4H inh | PABP polyA inh | Molecule
-109 | 94 | -8 | 70* | i | N=C1/C(=C\c2ccc(-c3ccc(C(=O)O)cc3)o2)C(=O)N=C2SC=C(c3ccccc3)N12
-11 | 94 | -19 | 83* | + | S=c1[nH]nc(-c2ccc(Cl)cc2)n1/N=C/C=C/c1ccco1
-15 | 91 | x | 96* | i | S=c1[nH]nc(-c2cccnc2)n1/N=C/C=C/c1ccco1
-31 | 111 | x | -7 | i | S=c1[nH]nc(-c2ccc(Cl)cc2)n1/N=C/c1ccco1
2 | 107 | -20 | 76* | + | CC(/C=N/n1c(-c2cccnc2)n[nH]c1=S)=C\c1ccco1
-11 | 127 | x | 91 | i | S=c1[nH]nc(-c2ccccc2)n1/N=C/C=C/c1ccco1
x | x | -4 | x | x | CCC(=O)N1C[C@@H]2[C@H](c3ccccc31)[C@H](CO)N2Cc1ccccc1Cl
x | x | 34 | x | x | C[C@H](CO)N1C[C@H](C)[C@H](CN(C)C(=O)CCCN(C)C)OCCCC[C@H](C)Oc2ccc(NC(=O)Nc3ccc(C(F)(F)F)cc3)cc2C1=O
x | x | 0 | x | x | C[C@H]1CN([C@@H](C)CO)C(=O)c2cc(C#CC3CC3)cnc2O[C@H]1CN(C)C(=O)Nc1ccccc1
0 | 111 | x | 2 | i | O=C(Nc1ncc2c(n1)-c1ccccc1CC2)C1CC1
-33 | 94 | x | 76* | i | CC(C)SCC(=O)Nc1ncc2c(n1)-c1ccccc1CC2
x | x | x | u | + | CCOc1cc(/C=C2/C(=O)ON=C2C)ccc1OCc1ccccc1
x | x | -8 | x | x | C[C@@H]1CN([C@H](C)CO)C(=O)Cc2cc(NS(=O)(=O)c3ccccc3)ccc2O[C@@H]1CN(C)S(C)(=O)=O
40* | 88 | -36 | -2 | i | O=C(O)CSc1cc(NS(=O)(=O)c2ccc(Cl)cc2)c2ccccc2c1O
-10 | 99 | 5 | x | x | Cc1ccnn1CCC(=O)N1CCCC(Nc2ccc(C(C)C)cc2)C1 (configuration not stated)
4 | 0.9* | -3 | -15 | i | Cc1ccnn1CCC(=O)N1CCCC(Nc2ccc(F)c(F)c2)C1 (configuration not stated)
-27 | 61* | -20 | 12 | i | O=C1CN(c2ccc(Cl)cc2)C(=O)CN1NC(=S)Nc1ccc(Cl)cc1
-8 | 118 | -13 | 60* | + | CCN(CC)c1ccc(-c2c(C#N)c(N)nc(OC)c2C#N)cc1
-11 | 106 | -14 | -7 | i | Cn1nc(N)c2c(-c3ccc(Cl)cc3)c(C#N)c(N)nc21
x | x | -5 | x | x | CN1CCN(C(=O)C[C@H]2CC[C@@H]3[C@H](COC[C@@H](O)CN3Cc3ccc4c(c3)OCO4)O2)CC1
x | x | -4 | x | x | CO[C@H]1CN(C)C(=O)c2cc(NC(C)=O)ccc2OC[C@H](C)N(Cc2nccs2)C[C@H]1C
-2 | 18* | -28 | 4 | i | C=CCOC(=O)C1=C(C)NC(SCC(N)=O)=C(C#N)C1c1cccs1 (configuration not stated)
4 | 107 | -4 | 22 | i | CCCCc1cc(=O)oc2c(CN3CCCC3)c(O)ccc12
-38 | 89* | -8 | 60* | + | CCCCc1cc(=O)oc2cc(C)c(CN3CCCC3)c(O)c12
5 | 100 | 9 | 63* | + | CCc1cc(=O)oc2cc(C)c(CN3CCCC(C)C3)c(O)c12 (configuration not stated)
x | x | -10 | x | x | C[C@@H]1CN([C@@H](C)CO)C(=O)Cc2cc(NS(=O)(=O)c3cn(C)cn3)ccc2O[C@H]1CN(C)CC1CCCCC1
14 | 80* | -15 | 12 | i | O=C(Nc1cccc([N+](=O)[O-])c1)c1ccc(CSc2ccccc2)cc1
2 | 73 | -14 | -4 | i | O=C(Nc1cccc([N+](=O)[O-])c1)c1ccccc1
x | x | -21 | x | x | C[C@H](CO)N1C[C@H](C)[C@H](CN(C)S(=O)(=O)c2ccccc2)OCCCC[C@H](C)Oc2ccc(NC(=O)Nc3ccccc3)cc2C1=O
-39 | 93 | -25 | 52* | + | Cc1c(/C=C(\C#N)c2nn(-c3ccccc3)c(N)c2C#N)c2ccccc2n1Cc1ccc(F)cc1

Three neighbouring compounds from above, for reference:
MLLE-PAM2 inh | Pemphigus Ab inh | Yeast UUG start | eIF4H inh | PABP polyA inh | Molecule
2 | 73 | -14 | -4 | i | O=C(Nc1cccc([N+](=O)[O-])c1)c1ccccc1
x | x | -21 | x | x | C[C@H](CO)N1C[C@H](C)[C@H](CN(C)S(=O)(=O)c2ccccc2)OCCCC[C@H](C)Oc2ccc(NC(=O)Nc3ccccc3)cc2C1=O
-39 | 93 | -25 | 52* | + | Cc1c(/C=C(\C#N)c2nn(-c3ccccc3)c(N)c2C#N)c2ccccc2n1Cc1ccc(F)cc1

Continued:
MLLE-PAM2 inh | Pemphigus Ab inh | Yeast UUG start | eIF4H inh | PABP polyA inh | Molecule
-11 | 102 | 1 | -13 | i | Cc1ccc(/C=C(\C#N)c2nn(-c3ccccc3)c(N)c2C#N)cc1
x | x | 18 | x | x | CO[C@H]1CN(C)C(=O)c2cc(NC(=O)C3CCCC3)ccc2OC[C@@H](C)N(C)C[C@@H]1C
x | x | 12 | x | x | COc1cccc(-c2cn(CC[C@@H]3CC[C@H](NC(C)=O)[C@@H](CO)O3)nn2)c1
-12 | 94 | x | -10 | i | CCN1C(=O)/C(=C2\C=Cc3ccccc3N2CC)SC1=S
52* | x | -18 | 0 | i | CCN1C(=O)/C(=C2/SC(C)=C(C)N2CC)SC1=S
2 | 32* | 1 | 0 | i | Cn1cc(CN2CCC(C(=O)N3CCCCC3)CC2)c(-c2ccccc2F)n1
-5 | 88 | -12 | -1 | i | CCOC(=O)C1CCCCN1Cc1cn(C)nc1-c1ccccc1F (configuration not stated)
x | x | 7 | x | x | O=C(NCC[C@@H]1CC[C@H](NS(=O)(=O)c2ccc(Oc3ccccc3)cc2)[C@@H](CO)O1)C1CC1
6 | 109 | 8 | -11 | i | CCOc1ccc(C(=O)NCCCCNC(=O)c2ccc(OCC)cc2)cc1
0 | 89 | x | -4 | + | CCOc1ccc(C(=O)NC(C)(C)CC)cc1
5 | 98 | -10 | 73*! | i | CC(/C=C\c1cccnc1)=C/C(=O)O
x | x | -15 | x | x | O=C(C[C@H]1C=C[C@H](NC(=O)Nc2cccc(F)c2)[C@@H](CO)O1)NCC1CC1
-145 | 91 | 28 | 6 | + | Cc1ccc2c(c1)N(C)/C(=C/c1cccc[n+]1C)S2
-133 | 111 | 2 | -2 | + | Cc1ccc2c(c1)N(C)/C(=C/c1cccc[n+]1CCO)S2
-140 | 88 | 11 | -2 | + | CN1/C(=C/c2cccc[n+]2C)Sc2ccccc21
-138 | 89 | -1 | -1 | i | COc1ccc2c(c1)N(C)/C(=C/c1cccc[n+]1C)S2
-3 | 91* | 10 | 24 | i | Cc1ccc(NC2=Nc3ccccc3N3C2=Nc2c(c(C)nn2-c2ccccc2)C3c2ccc(O)c(O)c2)cc1 (configuration not stated)
32* | 105 | -3 | 2 | i | CCC(CC)c1nnc(NC(=O)C2CC(=O)N(CCc3ccc(F)cc3)C2)s1 (configuration not stated)
12 | 104 | -5 | x | x | CCC(CC)c1nnc(NC(=O)C2CC(=O)N(CCc3ccc(OC)c(OC)c3)C2)s1 (configuration not stated)
40* | 91 | -17 | -4 | i | O=C(Nc1ccc(N2CCOCC2)c(S(=O)(=O)Nc2ccc(Cl)cc2)c1)c1cnccn1
40* | 111 | -9 | x | x | O=C(NC(Sc1ccc(Cl)cc1)C(=O)O)c1ccccc1 (configuration not stated)
0 | 102 | -15 | -8 | i | O=C(NC(C(=O)O)c1ccccc1)c1ccccc1 (configuration not stated)
